For orientation: pIC50 means the IC50 on a negative log10 scale, so that one unit is a factor of ten.

Protein sequences, listed by entry. Tags and fused reporters are not part of them.
UniProt P33981, whole entry: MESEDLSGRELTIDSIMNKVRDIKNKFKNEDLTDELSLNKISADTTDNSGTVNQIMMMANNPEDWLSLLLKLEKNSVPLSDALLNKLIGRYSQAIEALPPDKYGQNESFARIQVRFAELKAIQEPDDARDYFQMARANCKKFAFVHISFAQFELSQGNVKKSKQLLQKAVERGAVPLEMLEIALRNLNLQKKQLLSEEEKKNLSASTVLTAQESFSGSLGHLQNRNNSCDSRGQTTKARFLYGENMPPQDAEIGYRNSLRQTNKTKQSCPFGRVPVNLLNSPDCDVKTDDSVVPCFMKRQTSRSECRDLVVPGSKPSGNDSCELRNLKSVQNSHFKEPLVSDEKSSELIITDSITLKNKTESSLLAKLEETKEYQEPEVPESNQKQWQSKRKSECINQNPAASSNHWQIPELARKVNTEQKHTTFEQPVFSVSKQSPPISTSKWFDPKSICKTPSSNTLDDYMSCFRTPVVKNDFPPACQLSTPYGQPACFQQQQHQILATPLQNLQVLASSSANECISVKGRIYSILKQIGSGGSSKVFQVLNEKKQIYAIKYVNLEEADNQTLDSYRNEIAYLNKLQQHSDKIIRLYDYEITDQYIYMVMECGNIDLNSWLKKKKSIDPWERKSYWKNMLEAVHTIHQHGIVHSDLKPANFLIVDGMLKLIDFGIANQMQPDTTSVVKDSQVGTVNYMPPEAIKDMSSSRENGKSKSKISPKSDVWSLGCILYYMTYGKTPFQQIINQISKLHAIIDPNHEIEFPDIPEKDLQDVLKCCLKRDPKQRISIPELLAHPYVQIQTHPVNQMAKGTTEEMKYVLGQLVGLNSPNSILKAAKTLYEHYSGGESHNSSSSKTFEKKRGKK

Among the data in patent US20160207928A1, “NOVEL COMPOUNDS FOR THE TREATMENT OF CANCER” (BAYER PHARMA AKTIENGESELLSCHAFT, priority 2013, published 2016) are IC50 values, retold here.

This assay addresses human kinase Mps-1 (Homo sapiens, UniProt P33981). As to the kind of experiment: Mps-1 kinase assay (TR-FRET, 10 μM ATP). As to conditions: read-out: Mps-1 Inhibition, IC50 (Assay with 10 μM ATP), N-terminally GST-tagged human full length recombinant Mps-1. As to the method:
The human kinase Mps-1 phosphorylates a biotinylated substrate peptide. Detection of the phosphorylated product is achieved by time-resolved fluorescence resonance energy transfer (TR-FRET) from Europium-labelled anti-phospho-Serine/Threonine antibody as donor to streptavidin Labelled with cross-linked allophycocyanin (SA-XLent) as acceptor. Compounds are tested for their inhibition of the kinase activity.
N-terminally GST-tagged human full length recombinant Mps-1 kinase (purchased from Invitrogen, Karslruhe, Germany, cat. no PV4071) was used. […]
The resulting mixture was incubated 1 h at 22° C. to allow the binding of the phosphorylated peptide to the anti-phospho(Ser/Thr)-Europium-antibody. Subsequently the amount of phosphorylated substrate was evaluated by measurement of the resonance energy transfer from the Europium-labelled anti-phospho(Ser/Thr) antibody to the Streptavidin-XLent. Therefore, the fluorescence emissions at 620 nm and 665 nm after excitation at 350 nm was measured in a Viewlux TR-FRET reader (PerkinElmer LAS, Rodgau-Jügesheim, Germany). The “blank-corrected normalized ratio” (a Viewlux specific readout, similar to the traditional ratio of the emissions at 665 nm and at 622 nm, in which blank and Eu-donor crosstalk are subtracted from the 665 nm signal before the ratio is calculated) was taken as the measure for the amount of phosphorylated substrate. […]

pIC50: −log10 of the molar value.

For the compound `COc1cc(S(C)(=O)=O)ccc1Nc1nc2ccc(-c3ccc(NC(=O)Cc4ccc(F)cc4)cc3)nn2n1`, the pIC50 is ≥ 9.00.
